Data reported in patent US8501794B2, “Compounds as cannabinoid receptor ligands” (priority 2007, dated 2013).

Sequences of proteins named here, by UniProt entry; tags and fusion partners are left off. A change or cut given only in a name is not applied to a line headed by its entry.
UniProt P34972, whole entry, looked up: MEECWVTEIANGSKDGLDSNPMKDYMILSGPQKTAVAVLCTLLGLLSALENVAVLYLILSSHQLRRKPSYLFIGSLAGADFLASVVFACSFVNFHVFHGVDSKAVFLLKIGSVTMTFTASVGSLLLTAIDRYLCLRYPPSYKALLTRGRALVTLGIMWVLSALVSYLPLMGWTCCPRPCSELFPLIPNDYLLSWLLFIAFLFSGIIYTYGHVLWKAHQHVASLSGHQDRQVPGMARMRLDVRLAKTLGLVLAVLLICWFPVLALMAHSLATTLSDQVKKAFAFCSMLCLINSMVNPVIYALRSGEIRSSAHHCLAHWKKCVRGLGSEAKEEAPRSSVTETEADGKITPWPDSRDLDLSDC
UniProt Q9QZN9: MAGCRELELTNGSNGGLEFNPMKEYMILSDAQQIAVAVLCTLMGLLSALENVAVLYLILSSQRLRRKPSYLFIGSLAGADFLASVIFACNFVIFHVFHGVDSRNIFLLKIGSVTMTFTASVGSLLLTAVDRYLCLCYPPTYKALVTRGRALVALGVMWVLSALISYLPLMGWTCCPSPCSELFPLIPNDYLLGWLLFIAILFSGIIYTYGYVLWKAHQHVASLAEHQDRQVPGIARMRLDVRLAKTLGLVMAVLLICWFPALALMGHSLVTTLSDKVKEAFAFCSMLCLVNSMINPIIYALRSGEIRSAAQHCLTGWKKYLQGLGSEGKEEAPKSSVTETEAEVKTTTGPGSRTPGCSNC

Experiments:
human CB2 receptors = human CB2 receptors (Homo sapiens, UniProt P34972); assay: human CB2 radioligand binding assay ([3H]CP-55,940 competition); conditions: read-out: human CB2 (Ki); HEK293 membranes, 0.5 nM [3H]CP-55,940
rat CB2 [1] = molecular target: T1, rat CB2 (Rattus norvegicus, UniProt Q9QZN9); assay: rat CB2 radioligand binding assay ([3H]CP-55,940 competition); conditions: read-out: rat CB2 (Ki); HEK293 membranes, 0.5 nM [3H]CP-55,940
rat CB2 [2] = molecular target: T1, rat CB2; assay: rat CB2 cyclase functional assay (HitHunter cAMP, HEK cells); assay type: cell-based; conditions: read-out: rat CB2 cyclase (EC50), forskolin 18 μM

COc1ccc(Cl)cc1C(=O)/N=c1\sn(C(C)(C)C)c2c1CC(C(F)(F)F)CC2 (stereo not drawn)
Ki (human CB2 receptors): 0.24 nM | Ki (rat CB2 [1]): 0.3 nM | EC50 (rat CB2 [2]): 0.21 nM
